# From ChEMBL document CHEMBL1152792, “Synthesis and anticonvulsant activity of amino acid-derived sulfamides” (J Med Chem, 2009)
# Species on record: Mus musculus
# Test: Ratio of valproic acid ED50 to compound ED50 in albino mouse after 0.25 hrs by MES test
# Type: functional
smiles,measurement,value
CCCC(CCC)C(=O)O [VALPROIC ACID],Ratio ED50,1
